Test results published in ChEMBL document CHEMBL4477213, “Discovery and Optimization of Quinazolinone-pyrrolopyrrolones as Potent and Orally Bioavailable Pan-Pim Kinase Inhibitors” (J Med Chem, 2016).

The chains behind the UniProt entries cited, without tags or fusion partners. Where a name states a change or a piece, a line headed by the entry shows the natural chain unless it says otherwise.
UniProt P11309, whole entry: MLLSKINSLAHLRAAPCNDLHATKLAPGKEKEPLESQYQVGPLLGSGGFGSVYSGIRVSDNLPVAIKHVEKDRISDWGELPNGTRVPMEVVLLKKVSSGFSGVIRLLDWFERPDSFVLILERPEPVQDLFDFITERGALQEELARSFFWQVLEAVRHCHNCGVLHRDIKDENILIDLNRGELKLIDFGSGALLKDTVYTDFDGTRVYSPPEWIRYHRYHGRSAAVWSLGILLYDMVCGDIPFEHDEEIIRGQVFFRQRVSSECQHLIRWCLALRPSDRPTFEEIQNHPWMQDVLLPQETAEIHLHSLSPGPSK
UniProt Q9P1W9: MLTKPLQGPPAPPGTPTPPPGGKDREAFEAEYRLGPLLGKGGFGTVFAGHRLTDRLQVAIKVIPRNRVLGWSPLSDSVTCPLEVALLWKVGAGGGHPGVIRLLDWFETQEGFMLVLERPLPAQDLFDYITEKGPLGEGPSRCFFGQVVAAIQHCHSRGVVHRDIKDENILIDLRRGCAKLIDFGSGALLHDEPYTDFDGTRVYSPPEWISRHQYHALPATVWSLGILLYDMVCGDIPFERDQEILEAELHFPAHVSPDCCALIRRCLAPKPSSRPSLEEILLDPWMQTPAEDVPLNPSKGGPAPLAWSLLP

Columns and labels:
[1] = biological target: Serine/threonine-protein kinase PIM (Homo sapiens, UniProt P11309+Q9P1W9+Q86V86); conditions: kms-12-bm
[2] = biological target: Serine/threonine-protein kinase pim-2 (Homo sapiens, UniProt Q9P1W9); test: Inhibition of full length recombinant Pim-2 (unknown origin) assessed as reduction in phosphorylation of biotinylated-BAD peptide at Serine 112 residue preincubated for 30 mins followed by substrate addition for 1 hr by HTRF assay
[3] = biological target: Serine/threonine-protein kinase pim-1 (Homo sapiens, UniProt P11309)

Row | IC50 [1] | IC50 [2] | IC50 [3] | Compound
1 | 26 nM | 0.1 nM | 0.1 nM | C[C@H]1NC(=O)c2cc(-c3c(F)ccc4c(=O)n(C)c(NC(C)(C)C)nc34)[nH]c21
2 | 65 nM | 1.8 nM | 1.6 nM | Cc1nc2cccc(-c3cc4c([nH]3)[C@H](C)NC4=O)c2nc1NC(C)(C)C
3 | 407 nM | 1 nM | 0.5 nM | Cc1nc2cccc(-c3[nH]c4c(c3Cl)C(=O)N[C@@H]4C)c2nc1NC(C)(C)C
4 |  | 1 nM |  | Cc1nc2cccc(-c3cc4c([nH]3)[C@@H](C)NC4=O)c2nc1NC(C)(C)C
